The values that follow come from ChEMBL document CHEMBL1134503, “Synthesis, antifolate, and antitumor activities of classical and nonclassical 2-amino-4-oxo-5-substituted-pyrrolo[2,3-d]pyrimidines” (J Med Chem, 2001).

The target of this assay is T1, Dihydrofolate reductase (Homo sapiens, UniProt P00374).
T1 sequence (P00374 whole entry): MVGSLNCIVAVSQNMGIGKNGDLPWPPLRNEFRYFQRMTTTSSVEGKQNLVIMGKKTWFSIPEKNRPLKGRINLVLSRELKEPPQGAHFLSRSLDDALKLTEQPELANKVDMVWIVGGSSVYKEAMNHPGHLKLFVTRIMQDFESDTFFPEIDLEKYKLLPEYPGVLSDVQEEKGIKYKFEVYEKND

The term IC50 denotes the concentration that inhibits the measured activity by half. High values mean a need for much substance, low ones inhibition by little substance. `Nc1nc2[nH]cc(CCc3ccc(C(=O)N[C@@H](CCC(=O)O)C(=O)O)cc3)c2c(=O)[nH]1` [PEMETREXED] returned an IC50 of 2300 nM.
